Data from US8058243B2, “Method for treating a brain cancer with ifenprodil” (HSC Research and Development Limited Partnership, priority 2006, dated 2011).

Tested on: murine neural precursor cells (neurosphere cultures)
Experiment: HTS of LOPAC library against secondary neurosphere cultures, MTT proliferation assay at 3 μM, day 7 (z score, P value)
Details: LOPAC primary screen

R-(−)-Fluoxetine hydrochloride
Z score: −0.128
